Consider three substances from US20040014658A1.

Targets include FGF Receptor 3; FGF Receptor 1; FGF Receptor 2; FGFR3-IIIb isoform.
What all share (experiment): cell-based or functional assay

On to “L37M-FGF9 (from UniProt P31371 38-208) (ligand)”, for which the JNK activation (Western, anti-active JNK), lowest active concentration with FGF Receptor 3, with FGF Receptor 1 and in the assay with FGF Receptor 2 was less than 12.5 ng/mL in each case.

With “L37M-W144G-FGF9 (from UniProt P31371 38-208) (ligand)”, the proliferation of FDCP cells expressing the FGFR3-IIIb isoform, level of the comparator (not given) over L37M-W144G-FGF9 in the assay with FGFR3-IIIb isoform is greater than 2 fold. For the same substance, in the assay with FGF Receptor 1, the concentration needed for a mitogenic response on FGFR1-transfected FDCP cells (FIG. 3) was greater than 50 ng/mL and the proliferation of FDCP-FGFR1 cells (XTT) at raised concentration (fold higher concentration) was 100.

“L37M-W144R-FGF9 (from UniProt P31371 38-208) (ligand)”: the proliferation of FDCP-FGFR3 cells (XTT), level against FGF-9 (fold lower than FGF-9) with FGF Receptor 3 is 5.
